HCMV UL50-53 inh: inhibitors of HCMV UL50-UL53 nuclear egress complex interaction | HTRF UL50-UL53 interaction, normalized percent inhibition | inhibition, % (concentration not given with the values) | actives 0.15% (n = 190,000) | AID 1918969; in the data active = inhibition above about 27%, passing the limit was not always enough
GIV Gai3 FP: inhibitors of GIV peptide binding to Galpha-i3, primary screen, biochemical, fluorescence polarization, FITC-GIV GBA peptide, rat Galphai3. Guanine nucleotide-binding protein G(i) subunit alpha-3 (Rattus norvegicus), P08753. 90 min; stronger effect = lower value; scaled: aluminum fluoride 0%, vehicle 100%. percent of control (FP), % (test concentration not listed). hit rate 0.42% among 210,000. AID 1224905, 2016;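 active = replicate mean at 85% of control or lower, very high polarization wells dropped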;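 note: wells of about 15 µL received 100 nL stock; the first replicate is given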
An asterisk follows results filed as active; nt = no result. An excerpt weighted towards active compounds, which were near 0.46% of everything screened.

The chains behind the UniProt entries cited, without tags or fusion partners.
Guanine nucleotide-binding protein G(i) subunit alpha-3 (Rattus norvegicus), P08753, UniProt P08753, whole entry, looked up: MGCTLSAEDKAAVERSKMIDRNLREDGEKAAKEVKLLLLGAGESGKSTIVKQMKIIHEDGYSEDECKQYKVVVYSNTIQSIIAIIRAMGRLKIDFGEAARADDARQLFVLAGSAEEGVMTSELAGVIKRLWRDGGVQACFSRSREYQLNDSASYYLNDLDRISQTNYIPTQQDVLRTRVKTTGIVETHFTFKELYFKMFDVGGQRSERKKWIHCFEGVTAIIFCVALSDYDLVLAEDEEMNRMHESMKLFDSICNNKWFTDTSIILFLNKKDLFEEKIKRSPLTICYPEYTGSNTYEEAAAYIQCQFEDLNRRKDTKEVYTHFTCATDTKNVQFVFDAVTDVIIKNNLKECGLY

| Structure | HCMV UL50-53 inh | GIV Gai3 FP |
| --- | --- | --- |
| CSc1cccc(NC(=O)Cn2cnc(S(=O)(=O)N3CCc4ccccc43)c2)c1 | -3 | 107 |
| O=C(Oc1ccccc1OC(=O)c1ccccc1)c1ccccc1 | nt | 100 |
| O=C(Oc1cccc2c1C(=O)C=CC2=O)c1ccccc1 | 65* | 104 |
| CCN(CC(=O)Nc1ccccc1N1CCOCC1)CC(=O)NC1CCS(=O)(=O)C1 (centres undefined) | -35 | nt |
| Cc1ccc(C)c(-c2n[nH]c(=O)c3ccccc23)c1 | -20 | nt |
| CC1(C)C(=O)NC2=C1C(=O)C(=O)c1ccccc12 | 107* | nt |
| O=C1C2=C(NC3=C(C(=O)c4ccccc43)C23C(=O)Nc2ccccc23)c2ccccc21 | -10 | 107 |
| Cc1cc(C)cc(-n2ncc3c(N(CCO)c4ccccc4)ncnc32)c1 | nt | 96 |
| N#CC(C#N)C(C#N)(C#N)C1CCCC1=O (centres undefined) | -4 | 68* |
| CC1CCN(CCCNC(=O)Cn2ncc3c(=O)oc4ccccc4c32)CC1 | 7 | 94 |
| O=C(CSc1nc2c(sc3ncccc32)c(=O)n1Cc1ccccc1)Nc1ccc(F)c(F)c1 | 68* | 102 |
| O=C(CSc1nc2c(sc3ncccc32)c(=O)n1Cc1ccc(F)cc1)Nc1ccc(F)c(F)c1 | 64* | 101 |
| COc1ccc(Cn2c(SCC(=O)Nc3cccc(Cl)c3)nc3ncccc3c2=O)cc1 | 2 | 105 |
| CC(C)CSc1nc2c(sc3ncccc32)c(=O)n1Cc1ccccc1 | 62* | 103 |
| CCOC(=O)CSc1nc2c(sc3ccccc32)c(=O)n1Cc1ccc(C)cc1 | nt | 105 |
| O=C(Cn1cnc2c(sc3ncccc32)c1=O)Nc1ccc(F)c(F)c1 | nt | 104 |
| CN(Cc1ccccc1)C(=O)CN1C(=O)c2cccnc2Oc2ccc(Cl)cc21 | -11 | 107 |
| O=C(Cn1c(=O)c2cccn2c2ccc(F)cc21)NCCN1CCCCCC1 | -12 | 101 |
| CC(C)CNC(=O)N1CCC(C)(C(=O)NCc2ccc3c(c2)OCO3)CC1 | -18 | 106 |
| Cc1ccc2c(c1)NC(C)c1ccccc1O2 (centres undefined) | -10 | nt |
| CC(C)N1CCc2c(sc(N)c2C(N)=O)C1 | nt | -67* |
| CC(C)N1CCc2c(sc(NC(=O)C3=COCCO3)c2C(N)=O)C1 | -63 | 278 |
| O=C1c2ccccc2-c2nc3ccccc3nc21 | -135 | 104 |
| CCOc1cccc(N2C(=O)/C(=C\c3ccc(N(CC)CC)cc3OC)C(=O)NC2=S)c1 | -14 | 222 |
| CCN(CC)c1ccc(C=C2C(=O)c3ccccc3C2=O)c(OC)c1 | nt | -18* |
| CCC(=O)Nc1ccc2nc3c(=O)n(C)c(=O)n(C)c3nc2c1 | -152 | 102 |
| CCN(CC)c1ccc2nc3c(nc2c1)C(=O)c1ccccc1C3=O | 64* | 107 |
| CCN(CC)c1ccc2nc3c(=O)n(C)c(=O)n(C)c3nc2c1 | -138 | -26* |
| CCc1ccc(-c2ccc(=O)[nH]n2)cc1S(=O)(=O)N(C)C1CCCCC1 | -2 | 106 |
| O=C(NCc1csc(-c2ccccc2)n1)[C@H]1CSCN1C(=O)C1CCCO1 (some centres undefined) | nt | 105 |
| Cc1[nH]c(=O)[nH]c(=O)c1S(=O)(=O)N1c2ccccc2CC1C (centres undefined) | nt | -73* |
| CC1Cc2ccccc2N1S(=O)(=O)c1ccc2[nH]c(=O)[nH]c2c1 (centres undefined) | -10 | nt |
| COCCCN1C(=O)/C(=C/c2c(N3CCN(CCO)CC3)nc3ccccn3c2=O)SC1=S | nt | 23* |
| CC(c1ccccc1)N1C(=O)/C(=C\c2c(N3CCN(CCO)CC3)nc3ccccn3c2=O)SC1=S (centres undefined) | nt | 170 |
| COCCN1C(=O)/C(=C/c2c(N3CCN(CCO)CC3)nc3ccccn3c2=O)SC1=S | -97 | -29* |
| Cc1cccn2c(=O)c(/C=C3\SC(=S)N(Cc4ccccc4)C3=O)c(N3CCN(C)CC3)nc12 | -13 | 122 |
| CCN1CCN(c2nc3ccccn3c(=O)c2/C=C2\SC(=S)N(CC)C2=O)CC1 | -61 | 289 |
| O=C1/C(=C\c2c(N3CCN(CCO)CC3)nc3ccccn3c2=O)SC(=S)N1CC1CCCO1 (centres undefined) | nt | 25* |
| CC1CCN(c2nc3ccccn3c(=O)c2/C=C2/SC(=S)N(CC3CCCO3)C2=O)CC1 (centres undefined) | nt | 160 |
| Cc1cccn2c(=O)c(/C=C3\SC(=S)N(CC4CCCO4)C3=O)c(N3CCN(C)CC3)nc12 (centres undefined) | -82 | -30* |

The last 2 records of the section before come first, to join the parts.
| Structure | HCMV UL50-53 inh | GIV Gai3 FP |
| --- | --- | --- |
| CC1CCN(c2nc3ccccn3c(=O)c2/C=C2/SC(=S)N(CC3CCCO3)C2=O)CC1 (centres undefined) | nt | 160 |
| Cc1cccn2c(=O)c(/C=C3\SC(=S)N(CC4CCCO4)C3=O)c(N3CCN(C)CC3)nc12 (centres undefined) | -82 | -30* |
| COc1ccc(-n2ncc3c(Nc4ccc(C)c(C)c4)ncnc32)cc1 | nt | 105 |
| O=C(CSc1nc2ccccc2n1CC(=O)N1CCCC1)Nc1ccccc1 | -2 | 102 |
| Cc1cc(C)nc(NS(=O)(=O)c2ccc(NC(=O)CSc3nc4c(cc3C#N)CCCCC4)cc2)n1 | 28* | 102 |
| COc1ccc(NC(=O)CSc2nc3c(cc2C#N)CCCC3)cc1 | nt | 103 |
| N#Cc1c(S/C=C(\O)c2ccccc2)nc2c(c1C(F)(F)F)CCCC2 | -41 | -44* |
| N#Cc1c(N=CN2CCCCC2)nc2c(c1-c1ccccc1)CCCC2 | -23 | 101 |
| CC(=O)On1cc(F)c(=O)[nH]c1=O | -7 | nt |
| COc1cc(C=C2C(=O)NC(=O)NC2=O)ccc1OCc1ccccc1[N+](=O)[O-] | -11 | 101 |
| COc1cc(C=C2C(=O)NC(=O)NC2=O)ccc1Oc1ccc([N+](=O)[O-])cc1[N+](=O)[O-] | 49* | 102 |
| Cc1cccn2c(=O)c(/C=C3\SC(=S)N(C)C3=O)c(N3CCCC3)nc12 | nt | -36* |
| COCCCN1C(=O)/C(=C\c2c(N3CC(C)OC(C)C3)nc3c(C)cccn3c2=O)SC1=S (centres undefined) | nt | 208 |
| Cc1cccn2c(=O)c(/C=C3\SC(=S)N(CCCC(=O)O)C3=O)c(NCCc3ccccc3)nc12 | nt | 132 |
| Cc1cccn2c(=O)c(/C=C3\SC(=S)N(CCCC(=O)O)C3=O)c(N3CCCCC3)nc12 | nt | 40* |
| O=C1CN=C(Nc2ccccc2Cl)N1Cc1ccccc1 | 15 | 102 |
| Cc1cccc(NC2=NCC(=O)N2Cc2ccccc2)c1 | 59* | 102 |
| Cc1ccc(NC(=O)CSc2ncccn2)c(S(=O)(=O)N2CCCCC2)c1 | -19 | nt |
| N=C1/C(=C\c2coc3ccccc3c2=O)C(=O)N=C2SC=NN12 | nt | -55* |
| CN1C(N)=NC(=O)/C1=C/c1coc2ccccc2c1=O | -35 | 97 |
| O=C(NC1CCCCC1)N1CCc2cc(S(=O)(=O)Nc3ccc(F)cc3F)ccc21 | -8 | 97 |
| CC(C)(C)C(=O)[C@@H]1[C@@H](c2ccsc2)C(C#N)(C#N)[C@H]2C=Cc3ccccc3N12 | nt | 123 |

Reformatted: results already given
Under each structure: HCMV UL50-53 inh | GIV Gai3 FP
- Cc1cccn2c(=O)c(/C=C3\SC(=S)N(CCCC(=O)O)C3=O)c(NCCc3ccccc3)nc12
    nt | 132
- Cc1cccn2c(=O)c(/C=C3\SC(=S)N(CCCC(=O)O)C3=O)c(N3CCCCC3)nc12
    nt | 40*

3 entries from above, ordered by the number in GIV Gai3 FP, high to low.
mol,GIV Gai3 FP
CCN1CCN(c2nc3ccccn3c(=O)c2/C=C2\SC(=S)N(CC)C2=O)CC1,289
CN(Cc1ccccc1)C(=O)CN1C(=O)c2cccnc2Oc2ccc(Cl)cc21,107
CCN(CC)c1ccc(C=C2C(=O)c3ccccc3C2=O)c(OC)c1,-18*

Other entries follow:
| Structure | HCMV UL50-53 inh | GIV Gai3 FP |
| --- | --- | --- |
| CC(C)(C)C(=O)[C@@H]1[C@@H](c2cccs2)C(C#N)(C#N)[C@H]2C=Cc3ccccc3N12 | nt | -45* |
| O=c1oc2cc(O)ccc2cc1-c1cc(F)cc(F)c1 | -36 | 115 |
| N#Cc1cc2ccc(O)cc2oc1=N | -28 | -3.8* |
| CC1CCN(CCNc2cc(N(C)C)c3noc4c3c2C(=O)c2ccccc2-4)CC1 | -135 | -4.4* |
| Cc1ccc(Nc2cc(N(C)C)c3noc4c3c2C(=O)c2ccccc2-4)cc1 | nt | 115 |
| CN(C)c1cc(Nc2ccc(Cl)cc2)c2c3c(onc13)-c1ccccc1C2=O | -23 | 111 |
| CCNc1cc(N(C)C)c2noc3c2c1C(=O)c1ccccc1-3 | nt | -21* |
| COc1ccc(C=Nc2cccc(C(N)=O)c2)cc1OC | -12 | 100 |
| COc1ccc(CNC(=O)CSc2nc3cc(Cl)ccc3o2)cc1OC | -14 | nt |
